Key:
Assay type in all cases: cell-based
Set-up in all cases: key: “+” means tested and produced effect; “–“ means tested but no effect
ENaC = assay: Ion channel panel, ENaC; conditions: S12A at 5 μM; −60 mV, low and high sodium ND96, n ≥ 3
From the text: (§1) To assess the concentration–response relationships, data were fitted with the Hill equation: y = 100/[1 + (EC50/[toxin])^ h ], where y is the amplitude of the toxin-induced effect (y = I 30 ms/I peak where I 30 ms is the current value at 30 ms in the presence of toxin and I peak is the peak current amplitude in control conditions), EC50 is the toxin concentration at half-maximal efficacy, [toxin] is the toxin concentration, and h is the Hill coefficient. Potassium and calcium currents were evoked by a 500 ms depolarization to the voltage corresponding to the maximal activation of the channels in control conditions from a holding potential of −90 mV. Elicited currents were sampled at 1 kHz and filtered at 0.5 kHz. […] ASIC1a currents were measured in ND96 solutions at a pH of 7.4 and 4.5, at a holding potential of −70 mV during 400 s, and the data were filtered at 20 Hz. EnaC currents were measured by clamping oocytes at a holding potential of −60 mV and perfusing with low- (1 mM) and high- (96 mM) sodium ND96. Opioid currents were measured by clamping the potential to −70 mV and changing the perfusion solution from ND96 to high-potassium (HK) solution composed of 96 mM KCl, 2 mM NaCl, 1 mM MgCl2, 1.8 mM CaCl2, and 5 mM HEPES, with a final pH of 7.5. […] TRPV1 and TRPA1 currents were continuously monitored in a perfusing ND96 solution, following a protocol at −90 mV for 400 s. […]

Kv1.5 = assay: Ion channel panel, Kv1.5; conditions: S12A at 5 μM; Xenopus oocytes, n ≥ 3
From the text: as §1

αβδε = assay: Ion channel panel, nAChR αβδε; conditions: S12A at 5 μM, oocytes at −70 mV, 5 min incubation, n ≥ 3
From the text: as §1

CC[C@H](C)[C@@H]1NC(=O)[C@@H](NC(=O)CN)CSSC[C@@H]2NC(=O)[C@@H]3CSSC[C@@H](C(=O)N[C@@H](CC(N)=O)C(=O)N4C[C@H](O)C[C@H]4C(=O)N4C[C@H](O)C[C@H]4C(=O)N[C@@H](CC(N)=O)C(=O)N[C@@H](CCC(N)=O)C(=O)O)NC(=O)[C@H](CCCCN)NC(=O)[C@H](Cc4ccccc4)NC(=O)[C@H](CC(N)=O)NC(=O)[C@H](Cc4c[nH]c5ccccc45)NC(=O)CNC(=O)[C@H](CSSC[C@H](NC(=O)[C@H](Cc4ccccc4)NC(=O)[C@H](CO)NC(=O)CNC(=O)[C@H]([C@@H](C)O)NC(=O)[C@H](C)NC1=O)C(=O)N[C@@H]([C@@H](C)O)C(=O)N[C@@H](CC(C)C)C(=O)N[C@@H](C)C(=O)N[C@@H](CCCCN)C(=O)NCC(=O)N3)NC(=O)[C@H](CC(N)=O)NC(=O)[C@H](CCCCN)NC(=O)[C@H]([C@@H](C)O)NC2=O [Peptide S12A]
–: effect on ENaC (ENaC) | effect on Kv1.5 (Kv1.5) | effect on αβδε (αβδε)

Reference: paper PMC12836348, “Alanine Mutagenesis Identifies Specific Amino Acids of Nemertide Alpha‑1 Activity and Its Binding to Target Receptors” (Journal of Natural Products, 2025)
